Test results reported in article PMC5340791, “New approaches for the reliable in vitro assessment of binding affinity based on high-resolution real-time data acquisition of radioligand-receptor binding kinetics” (EJNMMI Research, 2017).

The chains behind the UniProt entries cited, without tags or fusion partners.
UniProt P0DMS8, whole entry: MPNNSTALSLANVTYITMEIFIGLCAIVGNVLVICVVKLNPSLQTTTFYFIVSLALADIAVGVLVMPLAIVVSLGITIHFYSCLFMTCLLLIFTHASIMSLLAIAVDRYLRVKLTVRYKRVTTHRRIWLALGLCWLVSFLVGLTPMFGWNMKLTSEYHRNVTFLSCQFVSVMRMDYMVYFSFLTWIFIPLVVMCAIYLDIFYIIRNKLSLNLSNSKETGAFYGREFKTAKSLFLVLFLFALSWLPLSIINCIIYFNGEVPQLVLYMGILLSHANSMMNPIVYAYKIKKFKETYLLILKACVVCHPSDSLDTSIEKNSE

Biological target: T1, human adenosine A3 receptor (CHO-K1-hA3R cells) (Homo sapiens, UniProt P0DMS8)
T1 construct: expressed in transfected cells
Experiment: Kinetic real-time cell-binding studies (LigandTracer) with [125I]-AB-MECA
Details: ratio k off/k on
Experimental: The assay protocol comprised repeated measurements of three points of the dedicated area in which the cells were seeded (cell pole) and three points of the opposing cell-free area (reference pole) of the petri dish as shown in Fig. 2a. Target distribution and cell attachment of the CHO-K1-hA3R cells were monitored continuously during the whole course of the binding experiment in the perimeter trace (Fig. 2b). Raw signal levels from consecutive measurements (n = 8) of a representative experiment after binding equilibrium of 0.7 nM [^125I]-AB-MECA were clearly distinguishable and determined to be 39.51 ± 0.50, 43.82 ± 0.76 and 38.69 ± 0.52 for the cell pole and 8.55 ± 0.29, 7.41 ± 0.22 and 10.74 ± 0.52 for the reference pole, respectively, which is outlined in Fig. 2b. The corresponding binding trace of the radioligand was calculated as the difference between the averaged values of the cell pole and the reference pole yielding in a stable background-corrected signal. Kinetic real-time cell-binding studies were conducted on CHO-K1-hA3R cells with [^125I]-AB-MECA at ambient temperature with LigandTracer® Grey. The experiments were started with baseline measurements 10–15 min prior radioligand incubation. Binding of [^125I]-AB-MECA to the seeded cells was realized by adding different concentrations (0.05–5 nM) to fully cover the concentration span needed for proper affinity estimation. Each dedicated concentration was incubated separately in a single petri dish, and the observed rate constants of the association reaction (kobs) were monitored in real-time until binding equilibrium. Unspecific uptake of the radioligand on the cell surface was confirmed with native CHO-K1 cells. As mentioned previously, the perimeter trace of the LigandTracer® was used to assure cell viability and attachment.
Data of the observed association phases determined in kinetic real-time cell-binding studies were transformed to start at time point zero. Transformed data were grouped together and globally fitted by using “association kinetics—two or more conc. of hot” to derive a single best-fit estimate for k on and k off as described as follows:5 Y=Ymax*1−e^−kob*x where “x” is a given time and “Y” reflects the amount of bound radioligand for a dedicated time point. “Y max” corresponds to the maximum amount of bound radioligand after equilibrium and “k ob” expresses the observed rate constant of the association reaction.
The observed rate constant of the association reaction is a function of the dedicated radioligand concentration, the association rate constant and the dissociation rate constant, which is described as follows:6 kob=kon*L+koff where “k ob” is the observed rate constant of the association reaction, “k on” represents the association rate constant, “L” reflects the radioligand concentration and “k off” indicates the dissociation rate constant. Considering Eqs. (5) and (6), best fit estimations for k on and k off can be calculated by using multiple radioligand concentrations. The resulting rate constants were used to obtain the K d as the ratio of k off/k on. An estimation of the target concentration of each single petri dish was derived by using the following equation:7 Ymax=L/L+Kd*Bmax where “Y max” is the maximum amount of bound radioligand after equilibrium and “B max” reflects the maximum amount of target receptors. “L” corresponds to the radioligand concentration and “K d” indicates the affinity of dedicated radioligand.

Structure (SMILES): CNC(=O)[C@H]1O[C@@H](n2cnc3c(NCc4ccc(N)c(I)c4)ncnc32)[C@H](O)[C@@H]1O [[^125I]-AB-MECA, [^125I]-4-aminobenzyl-5′-N-methylcarboxamideoadenosine]
- Kd (Averaged, data from three independent experiments): 0.636 ± 0.076 nM
- Kd (2 concentrations of radioligand): 0.887 ± 0.121 nM
- Kd (3 concentrations of radioligand): 0.528 ± 0.118 nM
- Kd (4 concentrations of radioligand): 0.556 ± 0.132 nM
- Kd (5 concentrations of radioligand): 0.704 ± 0.054 nM
- Kd (6 concentrations of radioligand): 0.695 ± 0.052 nM
- Kd (7 concentrations of radioligand): 0.683 ± 0.056 nM
- Kd (8 concentrations (0.05–5 nM) of radioligand): 0.711 ± 0.056 nM
